This is an account of results in publication PMC3158247 (Journal of medicinal chemistry, 2011).

For this data set, the system named is CL57BL/6 mice. Particulars: single intravenous bolus, […] 1a and 7.9 mg/kg 3c respectively, over 24 hours.

Regarding `Fc1cccc(Cl)c1C1CC(c2ccc(Cl)cc2)Nc2ncnn21` (racemic) [Compound 1a, 7-(2-Chloro-6-fluorophenyl)-5-(4-chlorophenyl)-4,5,6,7-tetrahydro-[1,2,4]triazolo[1,5-a]pyrimidine], the “morbidity, mortality, weight loss” value is reported as “neither compound caused observable morbidity, mortality, or weight loss”.
